Values quoted from earlier work in patent publication US20110111013A1.
Some compounds may have been tested in ways that are not shown here.

Conditions: Roy et al., J. Pharm. Sci. 1996

CCC(=O)N(c1ccccc1)C1CCN(CCc2ccccc2)CC1
concentration of fentanyl in the polyisobutylene matrix above which active ingredient precipitates: more than 4%
